T1: MBL/Ficolin associated protein-1 (MAP-1) from normal human serum (human, UniProt P48740 20-363)
T1 construct: Native protein as present in normal human serum (co-immunoprecipitation); also called FAP; serum MAP-1
T1 sequence: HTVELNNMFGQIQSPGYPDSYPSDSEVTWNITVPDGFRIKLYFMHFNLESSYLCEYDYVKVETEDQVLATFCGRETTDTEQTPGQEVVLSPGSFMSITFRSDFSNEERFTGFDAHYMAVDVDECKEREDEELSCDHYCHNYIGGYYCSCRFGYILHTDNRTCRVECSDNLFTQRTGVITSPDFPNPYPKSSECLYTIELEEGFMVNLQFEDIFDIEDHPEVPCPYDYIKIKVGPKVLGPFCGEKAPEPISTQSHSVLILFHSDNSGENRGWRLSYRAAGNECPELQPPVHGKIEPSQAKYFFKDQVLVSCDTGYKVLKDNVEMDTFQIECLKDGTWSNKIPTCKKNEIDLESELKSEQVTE

B1: Ficolin-2 in normal human serum (other, UniProt Q15485 26-313, looked up)
chain: LQAADTCPEVKMVGLEGSDKLTILRGCPGLPGAPGPKGEAGTNGKRGERGPPGPPGKAGPPGPNGAPGEPQPCLTGPRTCKDLLDRGHFLSGWHTIYLPDCRPLTVLCDMDTDGGGWTVFQRRVDGSVDFYRDWATYKQGFGSRLGEFWLGNDNIHALTAQGTSELRVDLVDFEDNYQFAKYRSFKVADEAEKYNLVLGAFVEGSAGDSLTFHNNQSFSTKDQDNDLNTGNCAVMFQGAWWYKNCHVSNLNGRYLRGTHGSFANGINWKSGKGYNYSYKVSEMKVRPA
notes: Native oligomeric serum protein
B2: Ficolin-3 in normal human serum (other, UniProt O75636 24-299, looked up)
chain: QEHPSCPGPRELEASKVVLLPSCPGAPGSPGEKGAPGPQGPPGPPGKMGPKGEPGDPVNLLRCQEGPRNCRELLSQGATLSGWYHLCLPEGRALPVFCDMDTEGGGWLVFQRRQDGSVDFFRSWSSYRAGFGNQESEFWLGNENLHQLTLQGNWELRVELEDFNGNRTFAHYATFRLLGEVDHYQLALGKFSEGTAGDSLSLHSGRPFTTYDADHDSSNSNCAVIVHGAWWYASCYRSNLNGRYAVSEAAAHKYGIDWASGRGVGHPYRRVRMMLR
notes: as for B1
B3: mannose-binding lectin (MBL) in normal human serum (other, UniProt P11226 21-248, looked up)
chain: ETVTCEDAQKTCPAVIACSSPGINGFPGKDGRDGTKGEKGEPGQGLRGLQGPPGKLGPPGNPGPSGSPGPKGQKGDPGKSPDGDSSLAASERKALQTEMARIKKWLTFSLGKQVGNKFFLTNGEIMTFEKVKALCVKFQASVATPRNAAENGAIQNLIKEEAFLGITDEKTEGQFVDLTGNRLTYTNWNEGEPNNAGSDEDCVLLLKNGQWNDVPCSTSHLAVCEFPI
notes: Native oligomeric serum protein; also called serum MBL

How the values were obtained:
[1] = molecular target: T1, MBL/Ficolin associated protein-1 …; experiment: co-immunoprecipitation from normal human serum, western blot
Description: Specific immunoprecipitation of MAP-1 from serum was performed with the MAP-1 specific mAb 20C4 (raised against the 17 MAP-1 specific C-terminal peptide) or mAb 8B3, a monoclonal antibody reacting against the common heavy chain of MASP-1/3 used as control precipitation antibody. A total of 10 μg of anti MAP-1 or MASP-1/3 antibody was allowed to bind to sheep anti mouse or rabbit IgG Dynabeads (M−280, cat. 112.02D/112.04D, Dynal/Invitrogen). After a washing step the beads were applied to a pool of normal human serum (diluted 1:1 in TBS) and incubated end over end for 1 hour at 4° C. After final washing steps and magnetic separation the beads were boiled in SDS loading buffer and subjected to SDS-PAGE and western blotting probed with antibodies to MAP-1, MBL, and Ficolin-3.
The same precipitation procedure as described above was performed with mAbs to MBL (Hyb 131-11, Bioporto, Denmark), Ficolin-2 (FCN219) and Ficolin-3 (FCN334). To compensate for differences in serum concentrations of MBL, Ficolin-2 and -3 were precipitated from 1 ml, 300 μl and 100 μl serum, respectively. Samples were analyzed by SDS-PAGE and western blotting probed with pAb against MAP-1.

[2] = molecular target: T1, MBL/Ficolin associated protein-1 …; experiment: immunoprecipitation of serum Ficolin-3 with clone 334, western blot with biotin labeled mAb 8B3 (FIG. 9)
Text: FIG. 9: Immunoprecipitation. Immunoprecipitation of serum Ficolin/MBL with mAb anti-MBL 131-11, anti-Ficolin-2 clone 219, and anti-Ficolin-3 clone 334. Followed by Dynal magnetic bead separation, SDS-PAGE, Western blot and biotin labeled anti-MASP-1/MASP-3 clone 8B3 as signal antibody.

| Binder | binding result [1] | binding result [2] |
| --- | --- | --- |
| B1 | binds | – |
| B2 | – | binds |
| B3 | binds | – |
